# Tests used:
# [1] = system: Mus musculus; test: Number of mice convulsed after intraperitoneal administration of Compound at a dose of 512 umol/kg; total no. of mice tested is 5
# [2] = system: Mus musculus; test: Number of mice convulsed after intraperitoneal administration of Compound at a dose of 328 umol/kg; total no. of mice tested is 5
# [3] = system: Mus musculus; test: Number of mice convulsed after intraperitoneal administration of Compound at a dose of 262 umol/kg; total no. of mice tested is 5
# [4] = system: Mus musculus; test: Number of mice convulsed after intraperitoneal administration of Compound at a dose of 410 umol/kg; total no. of mice tested is 5
structure (smiles),measurement,setting,value
O[C@H]1CC[C@](c2ccccc2)(N2CCCCC2)CC1,No. of mice,[1],3
same,No. of mice,[2],0
same,No. of mice,[3],0
O[C@H]1CC[C@@](c2ccccc2)(N2CCCCC2)CC1,No. of mice,[1],5
same,No. of mice,[2],0
same,No. of mice,[3],0
same,No. of mice,[4],2

# — ChEMBL document CHEMBL1121693 (1981)
